Test [1] deals with T1, BPTF bromodomain (Homo sapiens, UniProt Q12830). Particulars: read-out: Kd for BPTF bromodomain; first reported BPTF inhibitor; cited from earlier work.
Test [2] concerns the target T1, BPTF bromodomain. Nature of the test: Reported in vitro affinity for BPTF bromodomain. The conditions noted are these: comparison value for BPTF. The class given is binding.

For the molecule `COC(=O)c1cccc(NC(=O)NC2CCN(c3ccnc(Nc4ccc(F)cc4)n3)C2)c1` (centres unmarked) [AU1], the equilibrium dissociation constant (Kd) on BPTF bromodomain [1] was 2800 nM. The molecule further returned a ligand efficiency on BPTF bromodomain [2] of 0.22.
